One compound from ChEMBL document CHEMBL1151742, “Design, synthesis, and characterization of high-affinity, systemically-active galanin analogues with potent anticonvulsant activities” (J Med Chem, 2008) can be followed below.

The assay deals with T1, Galanin receptor type 2 (Homo sapiens, UniProt O43603).
T1 sequence (O43603 whole entry): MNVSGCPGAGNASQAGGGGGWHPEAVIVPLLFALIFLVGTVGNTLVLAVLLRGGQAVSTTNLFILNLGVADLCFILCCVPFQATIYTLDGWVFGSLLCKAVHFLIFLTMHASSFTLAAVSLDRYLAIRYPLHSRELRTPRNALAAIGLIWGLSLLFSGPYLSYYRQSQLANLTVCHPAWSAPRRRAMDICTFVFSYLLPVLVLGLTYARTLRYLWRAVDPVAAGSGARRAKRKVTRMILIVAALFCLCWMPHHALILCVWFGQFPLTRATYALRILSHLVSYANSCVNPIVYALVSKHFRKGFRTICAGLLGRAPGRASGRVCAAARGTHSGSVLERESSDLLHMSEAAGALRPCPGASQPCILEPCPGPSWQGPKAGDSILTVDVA
Put plainly: Displacement of europium-labeled galanin from human GalR2 expressed in CHO-K1 cells. Type of assay: cell-based.

Broadly, the Ki is the equilibrium dissociation constant of an inhibitor or competing ligand from its target. High values mean weaker binding, low ones tighter binding. `CCCCCCCCCCCCCCCC(=O)NCCCC[C@H](NC(=O)[C@@H](CCCCN)NC(=O)[C@@H](CCCCN)NC(=O)[C@@H]1CCCN1C(=O)CNC(=O)[C@H](CC(C)C)NC(=O)[C@H](CC(C)C)NC(=O)[C@H](Cc1ccc(O)cc1)NC(=O)CNC(=O)[C@H](C)NC(=O)[C@H](CO)NC(=O)[C@H](CC(N)=O)NC(=O)[C@H](CC(C)C)NC(=O)[C@@H](NC(=O)[C@H](Cc1c[nH]c2ccccc12)NC(=O)CNC)[C@@H](C)O)C(=O)N[C@H](CCCCN)C(N)=O`: the Ki was 15 nM.
